Reference: patent publication US20040235784A1, “Combination preparations of 3-n-formylhydroxylaminopropyl phosphonic acid derivatives or 3-n-acetylhydroxylaminopropyl phosphonic acid derivatives combined with specific pharmaceutical active agents” (priority 2000, published 2004)

Tested on: Plasmodium falciparum strains Dd2, 3D7 and HB3
Assay: Sensitivity of Plasmodium falciparum to fosmidomycin in combination with different compounds, semi-automatic test by [3H]-hypoxanthin incorporation into parasite DNA
Assay type: cell-based
Settings: drug in combination with fosmidomycin, sum FIC <1 synergism, >1 antagonism, =1 addition
Method: The IC50-values of fosmidomycin and the respective combination partner were determined for the single compounds and in different ratios of mixture on microtitreplates. The results were defined as sum of fractional inhibitory concentration (sum fractional inhibitory concentration, FIC):
sum FIC=IC50 of fosmidomycin in mixture/IC50 of fosmidomycin alone+IC50 of the combination partners in mixture/IC50 of combination partner alone
Sum FIC-values <1 represent synergism, values >1 antargonism and values=1 addition.

CCC[C@@H]1C[C@@H](C(=O)N[C@@H]([C@H]2O[C@H](SC)[C@H](O)[C@@H](O)[C@H]2O)[C@H](C)Cl)N(C)C1 [clindamycin]
sum FIC (P. falciparum strain 3D7): 0.40 | sum FIC (P. falciparum strain Dd2): 0.42 | sum FIC (P. falciparum strain HB3): 0.37
